Reference: patent US11046701B2, “Salt of cetagliptin, preparation method thereof, pharmaceutical composition, and use thereof” (CGENETECH (SUZHOU, CHINA) CO., LTD., priority 2018, dated 2021)

By UniProt entry, the sequences of proteins in these tests, tags left out. Residues count along the entry.
UniProt P28843, 38-760 limits assumed: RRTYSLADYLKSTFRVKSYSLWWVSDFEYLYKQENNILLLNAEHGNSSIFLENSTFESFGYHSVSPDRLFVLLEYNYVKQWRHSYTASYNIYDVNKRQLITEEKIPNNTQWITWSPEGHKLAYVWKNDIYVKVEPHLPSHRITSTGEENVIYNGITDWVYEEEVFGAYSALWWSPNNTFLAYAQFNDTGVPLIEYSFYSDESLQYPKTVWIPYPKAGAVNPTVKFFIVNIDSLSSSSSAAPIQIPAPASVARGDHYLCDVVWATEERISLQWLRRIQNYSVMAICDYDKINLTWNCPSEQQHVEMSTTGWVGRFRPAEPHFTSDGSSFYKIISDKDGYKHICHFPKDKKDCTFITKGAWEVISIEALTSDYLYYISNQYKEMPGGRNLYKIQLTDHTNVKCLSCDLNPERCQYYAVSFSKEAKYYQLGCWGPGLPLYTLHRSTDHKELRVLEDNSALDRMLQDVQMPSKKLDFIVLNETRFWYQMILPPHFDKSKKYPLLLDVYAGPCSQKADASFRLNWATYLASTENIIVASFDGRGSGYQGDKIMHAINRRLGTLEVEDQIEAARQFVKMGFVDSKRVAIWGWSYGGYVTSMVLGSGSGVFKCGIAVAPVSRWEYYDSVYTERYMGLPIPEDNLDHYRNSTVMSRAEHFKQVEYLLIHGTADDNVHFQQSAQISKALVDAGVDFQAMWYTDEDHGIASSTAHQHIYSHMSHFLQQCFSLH

Molecular target: serum DPPIV (Mus musculus, UniProt P28843)
Test: Long-term administration on DIO mice: inhibition of serum DPPIV
Format: in vivo, C57BL16 mice
Design: from tissue; host or cells: serum of diet-induced obese C57BL mice after 28 days of oral dosing
Settings: read-out: inhibition rate against DPPIV (serum)
Excerpt: Table 18 was a total data table of the metabolic parameters.

In the case of `N[C@@H](CC(=O)N1CCn2c(nnc2C(F)(F)F)C1)Cc1cc(F)c(F)cc1F` [Sitagliptin phosphate, reference compound], the inhibition at 30 mg/kg is reported as 66.4%.
